The assay relates to Swiss albino mice. The assay is described as follows: Formalin test with opioid receptor involvement. The conditions noted are these: compounds 50 mg/kg, Mor 5 mg/kg, Nal 1 mg/kg; for Total time spent in licking, % inhibition (0–5 min): first phase; for Total time spent in licking, % inhibition (15–30 min): second phase.

Marks after values point to notes of the source that are not given here.

These results are taken from publication PMC10897015, “Investigation of anti-nociceptive, anti-inflammatory potential and ADMET studies of pure compounds isolated from Isodon rugosus Wall. ex Benth” (Frontiers in Pharmacology, 2024).

`CN1CC[C@]23c4c5ccc(O)c4O[C@H]2[C@@H](O)C=C[C@H]3[C@H]1C5` [Mor, morphine, reference compound]: the “Total time spent in licking, % inhibition (0–5 min)” value is 84.99^### % and the “Total time spent in licking, % inhibition (15–30 min)” value is on record as 91.33^### %. For the setting “listed as morphine”, the “Total time spent in licking, % inhibition (0–5 min)” value was found to be 84.99% and the “Total time spent in licking, % inhibition (15–30 min)” value amounted to 91.33%.
